For 1 compound, Drug metabolism results are on record in ChEMBL document CHEMBL2062463 (Bioorg Med Chem Lett, 2012).

The data set concerns Liver (Mus musculus). Nature of the data set: Drug metabolism in mouse liver homogenates assessed as formation of SU12662 after 1 hr incubation by HPLC analysis. The note with it: tissue homogenate.

Consider `CCN(CC)CCNC(=O)c1c(C)[nH]c(/C=C2\C(=O)Nc3ccc([125I])cc32)c1C`, for which the Drug metabolism result is reported as “Active”.
